{
  "source": "patent US8835599B2",
  "about": "“Segmented degradable polymers and conjugates made therefrom” (Nektar Therapeutics, priority 2006, dated 2014)",
  "origin": "cited, not measured here",
  "conditions": "in vivo; pegylated (40 kDa) interferon alpha-2a",
  "data": [
    {"substance": "PEGASYS: PEG interferon marketed under the PEGASYS brand; pegylated (40 kDa) interferon alpha-2a", "values": [
      {"measurement": "PEG associated with the conjugate cleared by cleavage of a urethane bond", "value": "up to 30%"}
    ]}
  ]
}
